Assays:
BT-474 tumors = assay: In vivo antitumor activity, BT-474 HER2 positive breast tumor model; settings: BT-474 in SCID mice
Protocol: ADC-3 has been evaluated for in vivo antitumor activity in BT474 cell line, a HER2 positive breast tumor model.
Briefly, 4 to 6 week-old SCID mice were subcutaneously implanted with tumor fragments previously generated in donor mice. Before the initiation of each experiment, a blinded, independent determination of C-erb2 (oncogene related with HER-2 expression) by IHC was performed.
The animals were implanted as described above and when tumors reached ca. 150-200 mm3, tumor bearing animals (N=10/group) were randomly allocated into treatment groups according to the following experimental design:
Treatments were administered intravenously on days 0.7.14, 21 and 28 (q7dx5).
Median was calculated for tumor volume on each measurement day. Complete tumor regression (CR) was defined when tumor volume <63 mm^3 for 2 or more consecutive measurements.

[1] = tested on: SK-BR-3, HCC-1954, MDA-MB-231 and MCF-7 cells
Text: The aim of the assay was to evaluate the in vitro cytostatic (ability to delay or arrest tumor cell growth) or cytotoxic (ability to kill tumor cells) activity of the samples being tested.
The following human tumor cell lines were obtained from the American Type Culture Collection (ATCC): SK-BR-3 (ATCC HB-30), HCC-1954 (ATCC CRL-2338) (both being breast cancer, HER2+), MDA-MB-231 (ATCC HTB-26), MCF-7 (ATCC HTB-22) (both being breast cancer, HER2−).
For SK-BR-3, HCC-1954, MDA-MB-231 and MCF-7 cells, a colorimetric assay using Sulforhodamine B (SRB) was adapted for quantitative measurement of cell growth and cytotoxicity, as described by V. Vichai and K. Kirtikara. In “Sulforhodamine B colorimetric assay for cytotoxicity screening”, Nature Protocols, 2006, 1: 1112-1116. Briefly, cells were seeded in 96-well microtiter plates and allowed to stand for 24 hours in drug-free medium before treatment with vehicle alone or with the tested substances for 72 hours. For quantification, cells were washed twice with phosphate buffered saline (PBS), fixed for 15 min in 1% glutaraldehyde solution, rinsed twice with PBS, stained in 0.4% (w/v) SRB with 1% (v/v) acetic acid solution for 30 min, rinsed several times with 1% acetic acid solution and air-dried.
Cell survival was expressed in all cases as percentage of control, untreated cell survival. […]

Substance	tumor regressions (BT-474 tumors; 30.0 mg/kg intravenously q7dx5, from day 14 to day 190)	cytotoxicity / IC50 range in words [1]	complete tumor regressions (BT-474 tumors; 30 mg/Kg intravenously q7dx5, CR = tumor volume <63 mm^3 for 2 or more consecutive measurements)	antitumor activity (BT-474 tumors; 30 mg/Kg intravenously q7dx5, statistically significant, p<0.038 from day 12 until last registered day)
Kadcyla: comparator treatment group at 30 mg/kg in the BT-474 study; text does not define the trade name (presumably Trastuzumab emtansine)	7 out of 7			
Trastuzumab: monoclonal antibody that interferes with the HER2/neu receptor; purchased from Roche		completely inactive	not achieved	marked antitumor activity
